Earlier results, collected in patent publication US12377176B2, “Cancer diagnostic imaging agents” (Technische Universität München, priority 2019, dated 2025).

The chains behind the UniProt entries cited, without tags or fusion partners. Residues count along the entry.
UniProt P02768, 25-609: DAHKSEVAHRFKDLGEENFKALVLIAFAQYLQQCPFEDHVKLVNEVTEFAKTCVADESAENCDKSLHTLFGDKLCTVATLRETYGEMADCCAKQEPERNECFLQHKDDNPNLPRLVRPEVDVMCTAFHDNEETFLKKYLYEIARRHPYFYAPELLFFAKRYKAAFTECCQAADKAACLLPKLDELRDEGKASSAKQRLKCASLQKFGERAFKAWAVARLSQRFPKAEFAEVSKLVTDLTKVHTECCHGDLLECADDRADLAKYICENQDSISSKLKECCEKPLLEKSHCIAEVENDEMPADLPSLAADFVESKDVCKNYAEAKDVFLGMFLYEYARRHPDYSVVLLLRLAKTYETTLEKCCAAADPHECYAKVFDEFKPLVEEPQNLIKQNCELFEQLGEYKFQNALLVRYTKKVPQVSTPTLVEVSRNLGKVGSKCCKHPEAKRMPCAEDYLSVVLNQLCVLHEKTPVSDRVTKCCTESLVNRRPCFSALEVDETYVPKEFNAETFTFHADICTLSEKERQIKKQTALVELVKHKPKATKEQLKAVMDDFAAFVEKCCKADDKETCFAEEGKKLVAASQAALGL

Target: T1, HSA (Homo sapiens, UniProt P02768)
T1 construct: purchased H13H-2433
Settings: literature value of human serum albumin binding (Yamazaki 2004); calibration reference; cited from earlier work

NC(=O)N1c2ccccc2C=Cc2ccccc21 [Carbamazepine]
Lit. HSA %: 75.00%
